Earlier results, collected in publication PMC2898448 (The Journal of Biological Chemistry, 2010).

Tested on: DPP4
Settings: cited from earlier work

| Structure (SMILES) | inhibition of GLP1 processing by DPP4 (in words) | substrate specificity of DPP4 inhibition (in words) |
| --- | --- | --- |
| N#C[C@@H]1CCCN1C(=O)CNC12CC3CC(CC(O)(C3)C1)C2 [Galvus] | inhibit the processing of GLP1 by DPP4 | not GLP1-specific |
| N[C@@H](CC(=O)N1CCn2c(nnc2C(F)(F)F)C1)Cc1cc(F)c(F)cc1F [Januvia] | inhibit the processing of GLP1 by DPP4 | not GLP1-specific |
